These results are taken from patent US20250213516A1, “Prophylactic Methods For Treating ALS” (BioJiva LLC, priority 2022, published 2025).

A short description of the data set: Concentration of 13,13-D2-arachidonic acid in red blood cells of treated ALS patients. To be noted: daily dosage of about 8.64 grams over about 4 to about 10 weeks.

As to `[2H]C([2H])(/C=C\CCCCC)/C=C\CCCCCCCC(=O)O` [11,11-D2-linoleic acid], the “steady state concentration of 13,13-D2-arachidonic acid in red blood cells” value is “about 20%”.
